{
  "source": "patent US20260382624A1",
  "about": "“PHARMACEUTICAL COMPOSITIONS COMPRISING MELOXICAM” (published 2026)",
  "test_system": "migraine patients",
  "experiment": "Example 1 Phase 3 trial: treatment-emergent adverse events",
  "conditions": "N = 441 meloxicam/rizatriptan, 434 rizatriptan, 433 meloxicam",
  "data": [
    {"smiles": "CN(C)CCc1c[nH]c2ccc(Cn3cncn3)cc12", "values": [
      {"measurement": "Any Treatment-Emergent Adverse Event (number of subjects)", "result": "67 number of subjects"},
      {"measurement": "Dizziness (% of subjects)", "result": "(2.1%)"},
      {"measurement": "Dizziness (number of subjects)", "result": "9 number of subjects"},
      {"measurement": "Nausea (% of subjects)", "result": "(4.8%)"},
      {"measurement": "Nausea (number of subjects)", "result": "21 number of subjects"},
      {"measurement": "Somnolence (% of subjects)", "result": "(2.1%)"},
      {"measurement": "Somnolence (number of subjects)", "result": "9 number of subjects"},
      {"measurement": "Any Treatment-Emergent Adverse Event (% of subjects)", "setting": "placebo (6.0%)", "result": "(15.4%)"}
    ]}
  ]
}
